The conditions of this data set: in vivo, po. As to the method:
The experimental results described below were obtained on the basis of a study carried out in healthy human beings and in healthy Wistar rats weighing approximately 250 grams.
With regard to taking the blood samples from the rats and from the human beings, the blood was collected in tubes internally coated with EDTA and was then centrifuged at 3000 rpm (revolutions per minute) at ambient temperature for 45 min, and then for 15 min at a temperature of 4° C. The plasma was then collected and stored at −70° C. before analysis.
The analytical technique (LC-MS/MS for Liquid Chromatography coupled to tandem Mass Spectrometry) for measuring the active substance in the blood was based on the method described by Mata-Bilbao et al., published in 2007 in the Journal of Agricultural and Food Chemistry, volume 55, page 8857.
The free (+)-catechin was extracted from the plasma with a solution of phosphoric acid, EDTA and ascorbic acid and was then purified by SPE (solid phase extraction); in particular, it is an Oasis™ HLB extraction which is analyzed by LC-MS/MS. The quantification was carried out according to a standard calibration procedure with (+/−)-catechin-2,3,4-^13C3 as internal standard (SI).
This complex salt is administered to a group A of 5 healthy volunteers.
This ct parameter makes it possible to calculate, from the data of table 1, the bioavailability of the (+)-catechin expressed in ng h/ml.

For `Cl.NCCCCC(N)C(=O)O.Oc1cc(O)c2c(c1)O[C@H](c1ccc(O)c(O)c1)[C@@H](O)C2` [monomeric (+)-catechin hydrochlorolysinate], the “c (max)” value was determined as 525 ng/mL; the “ct (total concentration, area under curve over 6 h)” value amounted to 1.263 ± 0.088 µg·h/mL; the “increase in c (max) compared with pure monomeric (+)-catechin” value turned out to be 103%.

These data come from US20160095923A1, “ORAL COMPOSITION COMPRISNG (+)-CATECHIN” (VALORE, priority 2013, published 2016).
